The values below come from patent publication US10301306B2, “Substituted dihydro-1H-pyrrolo[3,2-c]pyridin-4(5H)-ones as RIPK3 inhibitors” (BRISTOL-MYERS SQUIBB COMPANY, priority 2014, dated 2019).

The chains behind the UniProt entries cited, without tags or fusion partners.
UniProt Q9Y572, whole entry: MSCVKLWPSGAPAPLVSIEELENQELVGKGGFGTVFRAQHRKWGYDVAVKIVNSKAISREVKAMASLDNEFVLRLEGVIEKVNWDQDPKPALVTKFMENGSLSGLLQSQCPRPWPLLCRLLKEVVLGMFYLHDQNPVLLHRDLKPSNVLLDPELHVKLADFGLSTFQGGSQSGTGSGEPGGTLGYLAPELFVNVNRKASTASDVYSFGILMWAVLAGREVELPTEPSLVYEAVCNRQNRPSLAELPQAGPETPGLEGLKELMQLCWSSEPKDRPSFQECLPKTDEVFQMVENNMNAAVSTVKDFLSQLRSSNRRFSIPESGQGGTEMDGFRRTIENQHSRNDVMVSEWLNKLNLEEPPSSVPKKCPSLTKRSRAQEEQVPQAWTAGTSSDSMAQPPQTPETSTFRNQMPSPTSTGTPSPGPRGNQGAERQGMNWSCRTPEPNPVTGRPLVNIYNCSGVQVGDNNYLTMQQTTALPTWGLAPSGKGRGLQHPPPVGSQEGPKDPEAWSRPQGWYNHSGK

Each structure is given as a SMILES string. A value given as a limit tells only on which side of the number the result lay.

The target in this assay is RIPK3 (Homo sapiens (Human), UniProt Q9Y572). Nature of the assay: RIPK3 HTRF Kinase Assay. It counts as binding. The settings on record: read-out: IC50 for Inhibition of RIPK3; RIPK3 1 nM; HTRF probe 23 nM; 60 min at room temperature. For orientation: In TR-FRET formats the signal depends on donor and acceptor labels being close together.
A word on the IC50: it is the point on the concentration scale where inhibition reaches its midpoint. As to `CCNc1cc(-c2c(-c3ccc(F)cc3)c3c(n2Cc2ccc(C(F)(F)F)cc2F)CCNC3=O)ccn1`, the half-maximal inhibitory concentration (IC50) was 100 to 15000 nM. For `Cc1ccc(-c2c3c(n(Cc4ccc(F)cc4C#N)c2-c2ccncc2)CCNC3=O)s1`, the IC50 is less than 30 nM. For `O=C(Nc1cc(-c2c(-c3ccc(F)cc3)c3c(=O)[nH]ccc3n2Cc2ccc(C(F)(F)F)cc2F)ccn1)C1CC1` the value was less than 30 nM.

Turning to `CCCCn1c2c(c(-c3ccc(F)cc3)c1-c1ccncc1)C(=O)NCC2`, the IC50 lay in the range of 31 to 100 nM. Consider `O=C1NCCc2c1c(-c1ccc(F)cc1)c(-c1ccnc(NC3CC3)c1)n2Cc1ccc(C(F)(F)F)cc1F`, for which the IC50 was less than 30 nM. For `Nc1cc(-c2c(-c3ccc(F)cc3)c3c(=O)[nH]ccc3n2Cc2ccc(C(F)(F)F)cc2F)ccn1` the value was less than 30 nM; for `CC(C)(C)OC(=O)Nc1cc(-c2c(-c3ccc(F)cc3)c3c(=O)[nH]ccc3n2Cc2ccc(C(F)(F)F)cc2F)ccn1`, 31 to 100 nM.

As to `O=C1NCCc2c1c(-c1ccc(F)cc1)c(-c1ccncc1)n2C1C=CCCC1` (stereo not drawn), the half-maximal inhibitory concentration (IC50) was in the range of 31 to 100 nM.

Turning to `CC(C)NC(=O)Nc1cc(-c2c(-c3ccc(F)cc3)c3c(n2CC2CCOCC2)CCNC3=O)ccn1`, the half-maximal inhibitory concentration (IC50) lay in the range of 100 to 15000 nM.
